The values that follow come from publication PMC8585690 (Toxicology, 2021).

The nature of this data set: Literature-based in vivo clinical clearance, AUC and bioavailability.

On to `Cc1ccc(C(=O)c2cc(O)c(O)c([N+](=O)[O-])c2)cc1` [Tolcapone], for which the “mean oral clearance adjusted for absorption” value (human, oral, mean of all available values, adjusted for incomplete absorption) came to 6.64 L/h. Moreover, where the note is “i.v. clearance 7.1 L/hr / hepatic blood flow 87 L/hr”, the extraction ratio amounted to 0.082.
